## AlphaSeq binding of Ab-14 light chain variants to a spike HR2 peptide

Source: Li et al. 2023 (doi:10.1038/s41467-023-39022-2), MIT Lincoln Laboratory and A-Alpha Bio; data file from the FLAb repository.

Target: peptide PDVDLGDISGINAS, taken from heptad repeat 2 (HR2) of SARS-CoV-2 spike.

The variants keep the heavy chain, the linker and the frameworks of Ab-14 (scFv order VH, a 15-residue (Gly4Ser)3 linker, VL).
VH: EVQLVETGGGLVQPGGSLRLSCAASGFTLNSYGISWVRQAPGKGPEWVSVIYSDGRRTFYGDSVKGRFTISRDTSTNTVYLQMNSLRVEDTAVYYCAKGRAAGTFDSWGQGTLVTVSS
VL: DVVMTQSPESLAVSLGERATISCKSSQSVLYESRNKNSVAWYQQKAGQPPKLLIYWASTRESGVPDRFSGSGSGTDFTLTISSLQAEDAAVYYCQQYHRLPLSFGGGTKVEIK

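Designed CDR sequences, proposed from the first random library and measured here. Their group label is 14L_Ctrl (Ctrl: baseline library sampled from a position-specific scoring matrix, with some repeated check sequences). In AlphaSeq, yeast of one mating type display the scFv and yeast of the other type display the target. After mating in shaken culture at 30 °C for 16 h, diploids were selected and their barcode pairs sequenced. A regression on co-assayed BCL2-family reference pairs converts the normalised counts of each replicate to an apparent Kd. The assay was run in six technical replicates.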

The parent's light chain CDRs are KSSQSVLYESRNKNSVA, WASTRES, QQYHRLPLS; each variant's own CDRs replace them letter for letter.
Scale: log10 of Kd in nM, estimated from mating counts; low values are strong binders.
An entry "nd" has no value in the source: the pair was not observed among the diploids in that replicate. This suggests poor binding but is not conclusive.
In the paper, a design with two or fewer of six values counts as a poor binder.
Empty control strains, which show no peptide, gave a signal in 4% of pairings with all light chain designs; the median was 2.64 and 95% of these signals were weaker than 1.59. No background was subtracted. Also given: how often the same scFv was detected with the empty control strains.
Values of this round are not directly comparable with the first-round values of the same sequences.
Of ten entries with the parent sequence, four were seen in most replicates (averages 0.34 to 2.37), three in one and three in none, so single entries are noisy.

With KESQSVLYESLNKNSVA / WASTRES / QQYHRDPLS the result was nd, nd, nd, nd, 1.85, nd (controls 0 of 18).
With KSSQSVLPESRNKNSVA / WASTREY / QQYLRLPLS the result was 0.81, 0.39, 0.54, 0.36, 0.52, 0.30 (controls 0 of 18).
With KSSQSVLYESRMKNSVA / WASTRES / QAYHRLPLS the result was nd, nd, nd, nd, nd, 2.00 (controls 0 of 18).
With KFSQSVLGESRNKNSVA / WASTRES / QQYHRIPIS the result was 0.98, 1.02, 1.09, 0.48, 0.82, 1.01 (controls 1 of 18).
With KSSQSQLYESRNDNSVA / TASTRNS / QQYHRLPLS the result was nd, nd, 2.26, 2.02, 3.52, 2.16 (controls 0 of 18).
With KSSQAVLYESRNKNSVA / GASTRES / QQYHRLPLL the result was 0.89, 0.79, 0.80, 0.71, 0.65, 0.60 (controls 0 of 18).
With KSSQSVLYESRNKNSVA / WASTRCS / QQYHRLPLS the result was 1.08, 1.44, 1.87, 1.13, 0.87, 1.30 (controls 2 of 18).
With KSSQSVLYESRNPNSVA / EASTRES / QHYHRLPLS the result was 0.68, 0.48, 0.68, 0.64, 0.91, 0.79 (controls 0 of 18).
With KSSQSVLYESRTKNSVA / WASTRES / QQYHMHPLT the result was nd, nd, nd, nd, nd, 2.58 (controls 0 of 18).
With KSSQSVLYESFNKNHVA / AASTRES / QSYHRLPLS the result was 0.70, 0.61, 0.29, 0.68, 0.53, 0.79 (controls 0 of 18).
With KSSQSVWYESRNKNSVA / WASTRES / QQYHRLPLS the result was 2.50, 1.37, 2.03, 1.98, 2.16, 1.69 (controls 1 of 18).
With KSSQSVLYESRNKNSVA / WASVRES / QQPHYLPLS the result was nd, nd, nd, nd, 1.87, nd (controls 0 of 18).
With KSSQSVLYESCNKNSVA / DASTRES / QQKHRLPLS the result was nd, nd, nd, nd, nd, nd (controls 0 of 18).
With KSSQSVLYESRNKNSVA / SASERES / PQYHRLPLS the result was nd, 1.61, nd, nd, nd, nd (controls 0 of 18).
With KSSQSVLYESNNKYSVA / WASTRES / QQYHRLPLS the result was 1.79, 1.13, 0.69, 1.12, 1.92, 2.00 (controls 0 of 18).
With KSSQQVLYESRNKNSVA / SASTRES / QAYHRLPLS the result was 0.83, 0.40, 0.60, 0.43, 0.82, 0.76 (controls 0 of 18).
With KFSQSVLYESENKNSVA / HASTRES / QQYHRLPLS the result was 0.23, 0.25, 0.07, -0.07, -0.10, 0.26 (controls 0 of 18).
With KSSQSVLYESRNMNSVA / AASTRES / SQYHRLPLS the result was 1.43, 1.26, 1.17, 1.62, 1.49, 1.49 (controls 1 of 18).
With KSSQAVLYESRNKNSVA / GASTRES / QQYHRLPTS the result was 0.98, nd, 2.65, 1.65, nd, 2.70 (controls 1 of 18).
With KLSQSQLYESRNKNSVA / KASTRES / QQYHRLPLS the result was 0.26, 0.41, 0.25, 0.40, 0.31, 0.95 (controls 0 of 18).
With KFSQSVQMESRNKNSVA / EASTRPS / QQYHRLPLS the result was 0.38, 0.30, 0.10, 0.42, 0.08, 0.31 (controls 1 of 18).
With KSSQSWWYESENKNSVA / WASTRES / QQYHRLPLS the result was nd, nd, nd, nd, nd, nd (controls 0 of 18).
With KSSYSLTYESRNKNSVA / WASTRES / QFYHRLPLS the result was nd, nd, nd, nd, nd, nd (controls 0 of 18).
With KITQSVHYESPNKNSVA / TASTRES / QQYHRLPLS the result was 1.38, 0.53, 1.00, 1.26, 1.61, 2.48 (controls 0 of 18).
With KISQSVLYESRNKNSVA / AASTRES / QGYHRLPLS the result was 2.02, 1.95, 1.16, 1.71, 1.15, 2.29 (controls 0 of 18).
With KSSQSVLYESRNHNSVA / MASTRES / QQYHRLPLS the result was 3.43, 1.56, 1.42, 1.64, 1.65, 2.02 (controls 0 of 18).
With KHSESVLYESRNKNSVA / GASTRES / QQYHRLPLS the result was 0.21, 0.10, 0.11, 0.08, 0.02, 0.16 (controls 1 of 18).
With KFSQSVLYESRNKNSVA / WADTRES / QTYHRLPLS the result was nd, nd, 2.01, nd, nd, 1.87 (controls 0 of 18).
With KSSQSVLYESRNPNSVA / WASTRES / QQYWRLFLS the result was nd, nd, nd, nd, nd, nd (controls 0 of 18).
With KSSQSLLYESRNKNSVA / DASTRES / QQYHRLPLS the result was 0.69, 0.38, 0.43, 0.49, 0.54, 0.62 (controls 2 of 18).
With KMSQSVLYESRAKNSVA / WASTRES / QQYHRLPLS the result was 0.87, 0.55, 0.21, 0.34, 0.39, 0.60 (controls 0 of 18).
With KSSWSVLYESVNKNGVA / WASTRED / QQYHRLPLS the result was nd, nd, nd, nd, nd, nd (controls 0 of 18).